## scFv variants of Ab-14 (heavy chain) against a SARS-CoV-2 spike peptide

Source: Engelhart et al. 2022 (doi:10.1038/s41597-022-01779-4), MIT Lincoln Laboratory and A-Alpha Bio; data file from the FLAb repository.

Target: peptide PDVDLGDISGINAS, taken from heptad repeat 2 (HR2) of SARS-CoV-2 spike.

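The parent was found by panning a naive human phage display library on the peptide. AAYL49 was designed without a model: most single CDR substitutions and a random sample of double and triple ones. The scFvs were displayed on barcoded MATa yeast, the peptide on MATalpha yeast. The frequency of each diploid, read from paired DNA barcodes, reflects how well the two displayed proteins bind. Read counts were normalised to the haploid input and turned into Kd by a linear fit to BCL2-family pairs of known affinity, for each replicate. Mating was done three times.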

Each scFv is VH, a (GGGGS)3 linker, VL, as in the parent Ab-14, and differs from it in the CDRs of the heavy chain only.
VH: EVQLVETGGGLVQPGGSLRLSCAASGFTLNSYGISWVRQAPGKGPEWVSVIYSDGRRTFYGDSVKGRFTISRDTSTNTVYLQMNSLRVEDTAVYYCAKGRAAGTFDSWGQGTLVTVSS
VL: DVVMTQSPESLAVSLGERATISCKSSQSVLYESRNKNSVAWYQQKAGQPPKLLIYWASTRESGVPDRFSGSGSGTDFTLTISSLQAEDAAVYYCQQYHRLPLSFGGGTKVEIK

Each variant is given by its three heavy chain CDRs, as the data file delimits them; those of the parent are GFTLNSYGIS, VIYSDGRRTFYGDSVK, GRAAGTFDS. Values are log10 of the apparent Kd in nM; lower means stronger binding. A mean of the replicates is given; it leaves out those without a signal. A pair that was not seen in that replicate is written "ND"; this usually means weak binding, but a binder can also be missed. Background: pairings of library AAYL49 with three empty control strains gave a value in 15% of cases (median 4.06, 5th percentile 2.83). Values in that range, when seen in few replicates, are hard to tell from nonspecific mating. Also given: how often the same scFv was detected with the empty control strains, with their mean in brackets. For reference, the parent read 0.65 as the reference entry and 4.11 (one replicate of three) as a member of this library.

{"CDR-H1": "GFTLNSYGIS", "CDR-H2": "VIYSDIMRTFYLDSVK", "CDR-H3": "GRAAGTFDS", "log10 Kd, replicates": "ND ND ND", "mean, log10 nM": "ND", "control signals": "1 of 9 (3.23)"}
{"CDR-H1": "GFTLNSYGIG", "CDR-H2": "VIYSDGRRTFYGDHVK", "CDR-H3": "GRAAGVFDS", "log10 Kd, replicates": "ND 5.20 3.61", "mean, log10 nM": "4.40", "control signals": "2 of 9 (4.08)"}
{"CDR-H1": "GFTLMSYGIS", "CDR-H2": "VIYSDGRRQFYGDSVK", "CDR-H3": "GRAAGPFDS", "log10 Kd, replicates": "ND 3.60 ND", "mean, log10 nM": "3.60", "control signals": "2 of 9 (4.17)"}
{"CDR-H1": "GFTLNSYGIS", "CDR-H2": "VIYSDVRRTFYGDSVK", "CDR-H3": "GRAIGRFDS", "log10 Kd, replicates": "ND 4.68 ND", "mean, log10 nM": "4.68", "control signals": "0 of 9"}
{"CDR-H1": "GFTLNSYGIS", "CDR-H2": "VIYSDGDRTFYGDSVK", "CDR-H3": "GRAACVFDS", "log10 Kd, replicates": "2.31 2.22 2.14", "mean, log10 nM": "2.22", "control signals": "1 of 9 (4.32)"}
{"CDR-H1": "GFTLNSYGIS", "CDR-H2": "VIYSDGRRTFYGDSVK", "CDR-H3": "GRAAGTFCS", "log10 Kd, replicates": "ND 3.46 ND", "mean, log10 nM": "3.46", "control signals": "0 of 9"}
{"CDR-H1": "GFTLNSYMIV", "CDR-H2": "VIYSDGRRTFYGDSVK", "CDR-H3": "GRAAGTFDS", "log10 Kd, replicates": "ND ND 4.90", "mean, log10 nM": "4.90", "control signals": "1 of 9 (4.79)"}
{"CDR-H1": "GFTRNSYGIS", "CDR-H2": "VIYSDGWRTFYGLSVK", "CDR-H3": "GRAAGTFDS", "log10 Kd, replicates": "ND ND ND", "mean, log10 nM": "ND", "control signals": "0 of 9"}
{"CDR-H1": "GFTLWSYGIS", "CDR-H2": "VIYSDGRRTFYGDAVK", "CDR-H3": "GRAAGTTDS", "log10 Kd, replicates": "ND ND ND", "mean, log10 nM": "ND", "control signals": "0 of 9"}
{"CDR-H1": "GFYLNSYGIS", "CDR-H2": "VIYSDGRRFFYGDSVK", "CDR-H3": "GRAAGTDDS", "log10 Kd, replicates": "ND 2.09 ND", "mean, log10 nM": "2.09", "control signals": "0 of 9"}
{"CDR-H1": "GFMLNSYGIS", "CDR-H2": "VIYADGCRTFYGDSVK", "CDR-H3": "GRAAGTFDS", "log10 Kd, replicates": "1.21 1.23 ND", "mean, log10 nM": "1.22", "control signals": "0 of 9"}
{"CDR-H1": "GFTLNSYGIS", "CDR-H2": "VIYSDGRRTYYGDSVK", "CDR-H3": "GRAAQTFDS", "log10 Kd, replicates": "5.42 ND ND", "mean, log10 nM": "5.42", "control signals": "1 of 9 (2.98)"}
{"CDR-H1": "GFTLNSYGIV", "CDR-H2": "VIYSDGRRTFYGDSCK", "CDR-H3": "GRAAGTFDS", "log10 Kd, replicates": "ND ND ND", "mean, log10 nM": "ND", "control signals": "0 of 9"}
{"CDR-H1": "GFTLNSYLIS", "CDR-H2": "VIYSDGRRTFYGDSVK", "CDR-H3": "GAAAGHFDS", "log10 Kd, replicates": "ND ND 3.41", "mean, log10 nM": "3.41", "control signals": "0 of 9"}
{"CDR-H1": "GFTLNSYGIS", "CDR-H2": "VIYSDGRPTFHGDSVY", "CDR-H3": "GRAAGTFDS", "log10 Kd, replicates": "4.72 ND ND", "mean, log10 nM": "4.72", "control signals": "0 of 9"}
{"CDR-H1": "GFTNNCYGIS", "CDR-H2": "VIYSCGRRTFYGDSVK", "CDR-H3": "GRAAGTFDS", "log10 Kd, replicates": "ND ND ND", "mean, log10 nM": "ND", "control signals": "0 of 9"}
{"CDR-H1": "GFTLNRAGIS", "CDR-H2": "VIYSDGRRTFYGDSVK", "CDR-H3": "GRACGTFDS", "log10 Kd, replicates": "ND ND ND", "mean, log10 nM": "ND", "control signals": "0 of 9"}
{"CDR-H1": "GFTLHSYGIS", "CDR-H2": "VGVSDGRRTFYGDSVK", "CDR-H3": "GRAAGTFDS", "log10 Kd, replicates": "6.00 ND ND", "mean, log10 nM": "6.00", "control signals": "0 of 9"}
{"CDR-H1": "GFTLNSYGIS", "CDR-H2": "VIYSDARRTFYGDPVK", "CDR-H3": "GRAAITFDS", "log10 Kd, replicates": "ND ND 4.29", "mean, log10 nM": "4.29", "control signals": "1 of 9 (3.04)"}
{"CDR-H1": "GFTLNSYGIS", "CDR-H2": "VIYSDGRRVFYGDSVK", "CDR-H3": "GRCAGTFDH", "log10 Kd, replicates": "ND ND ND", "mean, log10 nM": "ND", "control signals": "0 of 9"}
{"CDR-H1": "GFTLNSYGIS", "CDR-H2": "VIYSDGWRTFYGDSVK", "CDR-H3": "GEAAGTFDS", "log10 Kd, replicates": "ND ND ND", "mean, log10 nM": "ND", "control signals": "1 of 9 (4.83)"}
{"CDR-H1": "GFTDNSMGIS", "CDR-H2": "VIYSDGRRTFYGDSVK", "CDR-H3": "GRAAGQFDS", "log10 Kd, replicates": "3.70 ND ND", "mean, log10 nM": "3.70", "control signals": "0 of 9"}
{"CDR-H1": "GFTLNGYGIS", "CDR-H2": "VIYSDGRREFYGDSVK", "CDR-H3": "GRAAGTFAS", "log10 Kd, replicates": "ND 3.35 ND", "mean, log10 nM": "3.35", "control signals": "6 of 9 (3.75)"}
{"CDR-H1": "GFTMNSYPAS", "CDR-H2": "VIYSDGRRTFYGDSVK", "CDR-H3": "GRAAGTFDS", "log10 Kd, replicates": "ND ND ND", "mean, log10 nM": "ND", "control signals": "0 of 9"}
{"CDR-H1": "GFTLDSMGIS", "CDR-H2": "VIYSDGRRTFYGDSVK", "CDR-H3": "GRAAGMFDS", "log10 Kd, replicates": "ND ND 3.46", "mean, log10 nM": "3.46", "control signals": "0 of 9"}
{"CDR-H1": "GFTLNSYGIS", "CDR-H2": "VIYSDCRRTFYGDSVK", "CDR-H3": "GRAAGTFMS", "log10 Kd, replicates": "ND ND ND", "mean, log10 nM": "ND", "control signals": "0 of 9"}
{"CDR-H1": "GFTLNSYGIS", "CDR-H2": "VIYSDGRRTFYGRSNK", "CDR-H3": "GRAASTFDS", "log10 Kd, replicates": "ND ND ND", "mean, log10 nM": "ND", "control signals": "0 of 9"}
{"CDR-H1": "GFTLNSYKIQ", "CDR-H2": "VIYSDGLRTFYGDSVK", "CDR-H3": "GRAAGTFDS", "log10 Kd, replicates": "ND ND ND", "mean, log10 nM": "ND", "control signals": "2 of 9 (4.30)"}
{"CDR-H1": "GFTFNSYAIS", "CDR-H2": "VIYSDGRRTQYGDSVK", "CDR-H3": "GRAAGTFDS", "log10 Kd, replicates": "ND ND 5.36", "mean, log10 nM": "5.36", "control signals": "2 of 9 (4.41)"}
{"CDR-H1": "GLTLNFYGIS", "CDR-H2": "VIYSDGPRTFYGDSVK", "CDR-H3": "GRAAGTFDS", "log10 Kd, replicates": "3.65 4.01 4.53", "mean, log10 nM": "4.06", "control signals": "2 of 9 (4.13)"}

Top 2 of the variants detected in all replicates, tightest first:

CDR-H1	CDR-H2	CDR-H3	log10 Kd, replicates	mean, log10 nM	control signals
GFTLNSYGIS	VIYSDGDRTFYGDSVK	GRAACVFDS	2.31 2.22 2.14	2.22	1 of 9 (4.32)
GLTLNFYGIS	VIYSDGPRTFYGDSVK	GRAAGTFDS	3.65 4.01 4.53	4.06	2 of 9 (4.13)